Results reported in patent publication US20170166598A1, “HETEROARYL COMPOUNDS FOR KINASE INHIBITION” (ARIAD PHARMACEUTICALS, INC., priority 2014, published 2017).

The chains behind the UniProt entries cited, without tags or fusion partners. A line that says so, or that is headed by a name, gives the form on record, which may keep a tag or linker.
UniProt P00533, with tags, fused parts or gaps INS769ASV limits assumed: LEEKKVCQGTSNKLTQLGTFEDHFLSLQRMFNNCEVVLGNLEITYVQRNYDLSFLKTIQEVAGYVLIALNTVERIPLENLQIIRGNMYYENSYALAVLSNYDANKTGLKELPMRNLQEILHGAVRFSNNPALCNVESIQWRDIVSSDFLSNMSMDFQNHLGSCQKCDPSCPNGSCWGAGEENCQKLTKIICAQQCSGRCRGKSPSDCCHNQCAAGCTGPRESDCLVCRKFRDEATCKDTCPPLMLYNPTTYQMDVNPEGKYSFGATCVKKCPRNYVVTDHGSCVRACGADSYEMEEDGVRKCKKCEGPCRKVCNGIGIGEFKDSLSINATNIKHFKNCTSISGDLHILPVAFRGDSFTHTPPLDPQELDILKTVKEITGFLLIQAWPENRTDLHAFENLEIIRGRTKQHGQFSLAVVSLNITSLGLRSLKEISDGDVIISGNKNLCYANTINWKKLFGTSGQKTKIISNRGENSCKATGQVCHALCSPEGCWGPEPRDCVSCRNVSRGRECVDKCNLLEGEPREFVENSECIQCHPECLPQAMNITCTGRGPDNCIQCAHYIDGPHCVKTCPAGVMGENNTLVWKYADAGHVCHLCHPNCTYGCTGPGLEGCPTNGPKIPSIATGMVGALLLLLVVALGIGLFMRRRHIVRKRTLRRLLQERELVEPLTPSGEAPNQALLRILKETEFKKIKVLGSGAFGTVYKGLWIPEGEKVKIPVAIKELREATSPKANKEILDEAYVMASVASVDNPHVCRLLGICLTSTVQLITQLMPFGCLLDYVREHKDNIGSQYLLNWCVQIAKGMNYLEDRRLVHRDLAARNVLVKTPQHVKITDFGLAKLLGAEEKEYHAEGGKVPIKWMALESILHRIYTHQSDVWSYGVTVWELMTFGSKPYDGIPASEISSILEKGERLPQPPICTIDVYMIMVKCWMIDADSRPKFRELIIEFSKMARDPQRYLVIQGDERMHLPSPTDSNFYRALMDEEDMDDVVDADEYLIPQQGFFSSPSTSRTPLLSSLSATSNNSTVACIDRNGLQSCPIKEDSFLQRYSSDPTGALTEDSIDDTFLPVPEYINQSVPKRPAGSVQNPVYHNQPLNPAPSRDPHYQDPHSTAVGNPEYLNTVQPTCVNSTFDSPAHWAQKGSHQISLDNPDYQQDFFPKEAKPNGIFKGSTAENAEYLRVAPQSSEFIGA
UniProt P00533, with tags, fused parts or gaps INS772GNP limits assumed: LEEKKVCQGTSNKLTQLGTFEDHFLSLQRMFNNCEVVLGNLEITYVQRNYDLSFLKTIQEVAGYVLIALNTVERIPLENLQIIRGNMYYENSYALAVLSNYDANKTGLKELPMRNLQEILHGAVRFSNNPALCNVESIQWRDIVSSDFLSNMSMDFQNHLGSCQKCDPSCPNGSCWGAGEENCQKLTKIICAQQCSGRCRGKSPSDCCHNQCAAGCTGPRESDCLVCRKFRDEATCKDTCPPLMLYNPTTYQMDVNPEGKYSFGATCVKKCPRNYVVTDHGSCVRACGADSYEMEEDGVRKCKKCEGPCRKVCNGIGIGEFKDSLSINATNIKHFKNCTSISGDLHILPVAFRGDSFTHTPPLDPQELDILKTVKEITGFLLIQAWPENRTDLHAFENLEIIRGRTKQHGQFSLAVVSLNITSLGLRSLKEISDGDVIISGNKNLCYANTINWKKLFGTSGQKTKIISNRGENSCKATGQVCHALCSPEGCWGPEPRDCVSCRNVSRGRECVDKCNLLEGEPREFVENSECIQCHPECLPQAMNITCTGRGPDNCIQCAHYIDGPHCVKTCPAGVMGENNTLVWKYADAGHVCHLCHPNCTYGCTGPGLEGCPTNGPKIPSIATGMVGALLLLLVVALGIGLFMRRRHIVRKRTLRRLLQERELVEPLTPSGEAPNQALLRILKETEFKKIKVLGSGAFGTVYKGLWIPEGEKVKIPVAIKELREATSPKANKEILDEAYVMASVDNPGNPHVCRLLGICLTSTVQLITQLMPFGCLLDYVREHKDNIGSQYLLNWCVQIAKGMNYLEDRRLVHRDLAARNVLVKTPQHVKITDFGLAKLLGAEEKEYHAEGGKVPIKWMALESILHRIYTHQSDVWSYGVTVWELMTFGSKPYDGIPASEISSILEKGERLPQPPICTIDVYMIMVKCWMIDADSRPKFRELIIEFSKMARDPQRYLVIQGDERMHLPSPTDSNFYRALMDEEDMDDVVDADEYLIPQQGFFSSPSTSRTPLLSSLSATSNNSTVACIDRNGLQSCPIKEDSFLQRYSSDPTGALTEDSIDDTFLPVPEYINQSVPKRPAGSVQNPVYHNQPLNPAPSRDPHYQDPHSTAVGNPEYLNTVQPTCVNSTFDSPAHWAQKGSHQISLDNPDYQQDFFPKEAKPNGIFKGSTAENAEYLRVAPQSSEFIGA
UniProt P00533, with tags, fused parts or gaps DEL746-750/T790M limits assumed: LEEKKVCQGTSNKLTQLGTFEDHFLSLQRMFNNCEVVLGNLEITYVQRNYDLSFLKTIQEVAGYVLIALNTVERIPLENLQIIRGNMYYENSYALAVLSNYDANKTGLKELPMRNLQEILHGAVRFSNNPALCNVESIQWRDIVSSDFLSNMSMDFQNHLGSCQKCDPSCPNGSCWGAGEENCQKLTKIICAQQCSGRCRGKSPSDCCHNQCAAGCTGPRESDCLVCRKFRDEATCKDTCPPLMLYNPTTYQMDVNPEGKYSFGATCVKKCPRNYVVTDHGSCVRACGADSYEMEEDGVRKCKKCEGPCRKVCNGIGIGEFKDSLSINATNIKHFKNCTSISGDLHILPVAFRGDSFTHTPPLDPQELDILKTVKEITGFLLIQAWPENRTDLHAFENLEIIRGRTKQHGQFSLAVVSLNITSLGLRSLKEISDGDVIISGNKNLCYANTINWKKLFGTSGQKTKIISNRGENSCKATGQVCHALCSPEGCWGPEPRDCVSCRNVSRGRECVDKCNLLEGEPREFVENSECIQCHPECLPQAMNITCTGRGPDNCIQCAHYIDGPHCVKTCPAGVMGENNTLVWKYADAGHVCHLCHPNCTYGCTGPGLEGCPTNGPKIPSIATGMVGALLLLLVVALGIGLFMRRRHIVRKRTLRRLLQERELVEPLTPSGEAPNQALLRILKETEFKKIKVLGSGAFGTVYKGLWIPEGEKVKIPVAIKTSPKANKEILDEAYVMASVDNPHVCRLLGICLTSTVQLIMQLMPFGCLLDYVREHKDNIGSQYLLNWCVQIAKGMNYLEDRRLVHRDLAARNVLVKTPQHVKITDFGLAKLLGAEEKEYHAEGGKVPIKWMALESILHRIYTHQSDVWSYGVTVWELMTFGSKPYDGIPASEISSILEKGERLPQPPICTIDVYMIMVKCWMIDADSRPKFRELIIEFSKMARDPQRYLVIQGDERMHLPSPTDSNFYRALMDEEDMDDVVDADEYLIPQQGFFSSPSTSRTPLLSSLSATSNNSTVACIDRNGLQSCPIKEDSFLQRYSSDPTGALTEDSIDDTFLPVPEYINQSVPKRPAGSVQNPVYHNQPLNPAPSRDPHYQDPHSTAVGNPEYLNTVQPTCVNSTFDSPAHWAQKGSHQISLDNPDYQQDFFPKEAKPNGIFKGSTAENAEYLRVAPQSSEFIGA
UniProt P04626, with tags, fused parts or gaps INS775YVMA limits assumed: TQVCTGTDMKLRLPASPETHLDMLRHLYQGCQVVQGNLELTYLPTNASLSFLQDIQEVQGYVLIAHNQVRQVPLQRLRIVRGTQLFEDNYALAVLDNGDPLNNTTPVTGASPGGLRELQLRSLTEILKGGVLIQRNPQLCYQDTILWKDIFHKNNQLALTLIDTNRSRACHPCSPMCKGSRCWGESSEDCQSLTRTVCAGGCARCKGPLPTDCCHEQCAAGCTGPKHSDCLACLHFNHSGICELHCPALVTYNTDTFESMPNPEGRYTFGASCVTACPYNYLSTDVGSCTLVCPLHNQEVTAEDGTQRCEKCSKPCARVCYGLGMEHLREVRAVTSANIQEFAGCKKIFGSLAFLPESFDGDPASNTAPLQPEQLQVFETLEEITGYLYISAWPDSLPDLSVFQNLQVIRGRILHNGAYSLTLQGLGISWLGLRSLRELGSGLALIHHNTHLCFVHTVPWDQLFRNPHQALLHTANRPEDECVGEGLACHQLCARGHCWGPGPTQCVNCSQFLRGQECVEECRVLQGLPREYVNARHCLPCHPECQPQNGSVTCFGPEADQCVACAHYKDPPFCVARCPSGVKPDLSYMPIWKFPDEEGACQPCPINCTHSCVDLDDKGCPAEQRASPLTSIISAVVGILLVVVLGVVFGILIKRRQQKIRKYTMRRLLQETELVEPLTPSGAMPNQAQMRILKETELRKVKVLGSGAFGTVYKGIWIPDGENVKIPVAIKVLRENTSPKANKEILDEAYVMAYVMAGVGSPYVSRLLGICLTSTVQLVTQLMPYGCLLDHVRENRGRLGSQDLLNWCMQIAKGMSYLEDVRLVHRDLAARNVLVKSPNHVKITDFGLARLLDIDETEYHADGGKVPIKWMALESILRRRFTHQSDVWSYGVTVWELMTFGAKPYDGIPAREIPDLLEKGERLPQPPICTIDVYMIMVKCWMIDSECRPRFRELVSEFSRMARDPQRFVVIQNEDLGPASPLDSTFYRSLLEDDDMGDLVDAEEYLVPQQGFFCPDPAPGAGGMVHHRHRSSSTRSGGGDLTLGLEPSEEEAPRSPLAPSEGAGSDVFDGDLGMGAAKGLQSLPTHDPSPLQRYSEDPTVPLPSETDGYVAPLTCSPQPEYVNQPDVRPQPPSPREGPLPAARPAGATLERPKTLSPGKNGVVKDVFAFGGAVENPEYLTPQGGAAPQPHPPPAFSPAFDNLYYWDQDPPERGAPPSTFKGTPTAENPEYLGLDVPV

Tests used:
[1] = target: human EGFR exon 20 insertion ASV (V769_D770insASV) (Homo sapiens, UniProt P00533, INS769ASV); experiment: Ba/F3-EGFR-Exon20-ASV cell anti-proliferative assay (CellTiter 96 MTS, 72 h); format: cell-based; settings: read-out: EGFR exon 20 ASV insertion IC50, Ba/F3-EGFR-Exon20-ASV cells
[2] = target: human EGFR exon 20 insertion NPG (H773_V774insNPG) (Homo sapiens, UniProt P00533, INS772GNP); experiment: Ba/F3-EGFR-Exon20-NPG cell anti-proliferative assay (CellTiter 96 MTS, 72 h); format: cell-based; settings: read-out: EGFR exon 20 NPG insertion IC50, Ba/F3-EGFR-Exon20-NPG cells
[3] = target: human EGFR E746-A750 deletion and T790M Mutation (Homo sapiens, UniProt P00533, DEL746-750/T790M); experiment: Ba/F3-EGFR-Del/T790M cell anti-proliferative assay (CellTiter 96 MTS, 72 h); format: cell-based; settings: read-out: EGFR exon 19 deletion and exon 20 T790M mutation IC50, Ba/F3-EGFR-Del/T790M cells
[4] = target: Her2 exon 20 YVMA insertion (A775_G776ins YVMA) (Homo sapiens, UniProt P04626, INS775YVMA); experiment: Ba/F3-Her2 Exon20 YVMA cell anti-proliferative assay (CellTiter 96 MTS, 72 h); settings: read-out: HER2 exon 20 YVMA insertion IC50, Ba/F3-Her2 Exon20 YVMA cells

Structure (SMILES)	IC50 [1] [nM]	IC50 [2] [nM]	IC50 [3] [nM]	IC50 [4] [nM]
C=CC(=O)Nc1cc(Nc2ncc(CCCCO)c(-c3cn4c5c(cccc35)CCC4)n2)c(OC)cc1N(C)CCN(C)C	< 100	< 100	< 100	100 to 500
C=CC(=O)Nc1cc(Nc2ncc(-c3cnn(C(C)C)c3)c(-c3cn4c5c(cccc35)CCC4)n2)c(OC)cc1N(C)CCN(C)C	< 100	< 100	< 100	< 100
